Experimental data: patent publication US6056942A, “5-HT1A ligands” (John Wyeth & Brother, Ltd., priority 1993, dated 2000)
pIC50: −log10 of the molar value.

Chains of the proteins cited; added tags and fusions are not shown.
UniProt P19327, whole entry: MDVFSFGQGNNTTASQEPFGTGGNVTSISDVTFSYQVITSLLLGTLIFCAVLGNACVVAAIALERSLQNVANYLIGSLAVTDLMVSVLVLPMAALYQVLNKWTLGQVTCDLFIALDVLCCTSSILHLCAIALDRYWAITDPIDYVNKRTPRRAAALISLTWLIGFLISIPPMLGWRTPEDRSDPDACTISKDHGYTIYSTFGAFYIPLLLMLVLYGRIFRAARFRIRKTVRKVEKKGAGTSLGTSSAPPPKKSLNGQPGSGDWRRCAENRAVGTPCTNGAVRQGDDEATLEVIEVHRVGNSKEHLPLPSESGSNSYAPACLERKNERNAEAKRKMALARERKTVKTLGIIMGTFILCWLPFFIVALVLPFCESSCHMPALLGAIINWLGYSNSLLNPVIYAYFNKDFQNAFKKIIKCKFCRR

Target: 5-HT1A binding site (Rattus norvegicus, UniProt P19327)
Experiment: biochemical

NCCc1c[nH]c2ccc(O)cc12 [Compound 5-HT]
pIC50: 7.00 to 8.00

COc1ccc2[nH]cc(C3=CCNCC3)c2c1 [RU24969]
pIC50: 7.00 to 8.00
